The target of this assay is Delta-type opioid receptor (Homo sapiens, UniProt P41143). In words: ChEBML_146873.

Amino acid sequences for entries named in this document (tags omitted).
UniProt P41143, whole entry, looked up: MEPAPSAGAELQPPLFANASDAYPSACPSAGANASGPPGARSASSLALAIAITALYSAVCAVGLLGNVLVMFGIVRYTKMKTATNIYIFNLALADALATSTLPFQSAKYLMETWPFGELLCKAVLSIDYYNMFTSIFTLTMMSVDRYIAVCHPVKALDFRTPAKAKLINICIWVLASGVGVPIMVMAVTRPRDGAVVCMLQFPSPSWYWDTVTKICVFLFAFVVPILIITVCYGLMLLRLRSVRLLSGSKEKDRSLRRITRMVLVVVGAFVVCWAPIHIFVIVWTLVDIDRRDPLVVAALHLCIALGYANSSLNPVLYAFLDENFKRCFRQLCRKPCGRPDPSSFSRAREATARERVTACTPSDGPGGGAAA

This passage reports IC50 results from BindingDB's records for 1320121.

The structures appear in SMILES notation.

In general, IC50 refers to the concentration that gives 50% inhibition. Read a high IC50 as weaker potency in that assay.

In turn, `C=C(CO[C@@H]1CC[C@@]2(O)[C@H]3Cc4ccc(O)c5c4[C@@]2(CCN3CC2CC2)[C@H]1O5)C(=O)OC` returned an IC50 of 1.4 nM.
